Test results reported in PubChem BioAssay AID684 (PCMD, 2007).
Only a part is listed here, and it is no random draw. The source made the active and inactive calls. Rule as the data show it: active = inhibition above about 20% (passing the limit was not always enough); inactive = the rest.

Protein sequences, listed by entry. Tags and fused reporters are not part of them. Residues count along the entry.
UniProt P00748, 20-372 limits assumed: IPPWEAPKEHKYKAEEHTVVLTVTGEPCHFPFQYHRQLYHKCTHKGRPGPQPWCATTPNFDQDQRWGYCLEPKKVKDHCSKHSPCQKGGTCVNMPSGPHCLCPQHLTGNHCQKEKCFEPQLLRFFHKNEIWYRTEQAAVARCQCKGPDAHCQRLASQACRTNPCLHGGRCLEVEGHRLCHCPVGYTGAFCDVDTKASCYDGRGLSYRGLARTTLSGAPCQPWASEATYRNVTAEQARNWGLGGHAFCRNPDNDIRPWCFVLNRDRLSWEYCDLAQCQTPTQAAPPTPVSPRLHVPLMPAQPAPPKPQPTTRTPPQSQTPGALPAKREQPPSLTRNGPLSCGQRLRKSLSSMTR
UniProt P00748, 373-615 limits assumed: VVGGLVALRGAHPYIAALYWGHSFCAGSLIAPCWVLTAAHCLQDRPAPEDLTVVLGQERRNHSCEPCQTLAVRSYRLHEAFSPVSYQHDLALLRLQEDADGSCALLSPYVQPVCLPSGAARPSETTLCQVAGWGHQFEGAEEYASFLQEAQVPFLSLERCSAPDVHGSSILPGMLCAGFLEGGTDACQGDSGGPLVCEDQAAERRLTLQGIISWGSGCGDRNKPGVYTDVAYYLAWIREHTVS

target: Coagulation factor XII (Homo sapiens) (UniProt P00748); assay: blockers of FXIIa protease activity – biochemical, pooled compound mixtures, fluorogenic substrate, primary screen (AID 684); settings: purified FXIIa, at 5 µM, stronger effect = higher value;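 also: 0% = enzyme without compound and 100% = no enzyme blank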

Row | SMILES | inhibition
1 | COc1ccccc1OP(C)(=O)Nc1ccc(C)cc1 (stereo not drawn) | inactive: 8.72%
2 | Cc1ccc(NP(C)(=O)Oc2ccccc2)c(C)c1 (stereo not drawn) | inactive: -5.22%
3 | CP(=S)(Nn1cnnc1)Oc1ccccc1 (stereo not drawn) | inactive: 10.2%
4 | CCOP(C)(=S)SCC(=O)NC(C)C(=O)O (stereo not drawn) | inactive: -15.1%
5 | CP(=O)(NC(=O)Nc1ccccc1)Oc1ccccc1 (stereo not drawn) | inactive: -0.07%
6 | Cc1nc2ccc3ccccc3c2s1.O=[N+]([O-])c1cc([N+](=O)[O-])c(O)c([N+](=O)[O-])c1 | inactive: -11.9%
7 | Cc1ccc(C)c(NP(C)(=O)Oc2ccccc2)c1 (stereo not drawn) | inactive: 7.45%
8 | CP(=O)(Nc1ccccc1F)Oc1ccccc1 (stereo not drawn) | inactive: 9.67%
9 | CN(C)CCOC(=O)C(O)(c1ccccc1)C1CCCCC1 (stereo not drawn) | inactive: 5.82%
10 | Cc1ccccc1NP(C)(=O)Nc1ccccc1C | inactive: 1.26%
11 | CP(=O)(Nc1ccc2c(c1)OCCO2)Oc1ccccc1 (stereo not drawn) | inactive: -9.66%
12 | CCOP(C)(=S)SCC(=O)NC(C)(CC)C(=O)O (stereo not drawn) | inactive: 15.7%
13 | CP(=O)(Oc1ccccc1)N1CCOC1=O (stereo not drawn) | inactive: 1.27%
14 | COc1ccccc1OP(C)(=O)Nc1c(C)n(C)n(-c2ccccc2)c1=O (stereo not drawn) | inactive: 10.8%
15 | CCN(CC)CC(O)COC(=O)C(O)(c1ccccc1)C1CCCCC1 (stereo not drawn) | inactive: 11.4%
16 | Cc1nc2ccc3ccccc3c2o1.O=[N+]([O-])c1cc([N+](=O)[O-])c(O)c([N+](=O)[O-])c1 | inactive: 5.94%
17 | COc1ccccc1OP(C)(=O)Nc1ccc(C)c(C)c1 (stereo not drawn) | inactive: -0.19%
18 | CP(=O)(Nc1ccccn1)Oc1ccccc1 (stereo not drawn) | inactive: 2.86%
